Test results as given in PubChem BioAssay AID1346984 (Tox21, 2019).
Only a part is listed here, and it is no random draw. Results filed as inconclusive are left out. Active and inactive are the calls of the source. Calls follow the shape of the dose curve; as a rule, active = well fitted activation curve with a large enough effect in the repeat runs; inconclusive = weak or mixed curves; inactive = no such curve, though single readings can be large or run the other way.

Target: Nuclear receptor subfamily 1 group I member 2 (Homo sapiens) (UniProt O75469)
Assay: CYP3A4 induction through human pregnane X receptor (PXR) by small molecules, qHTS assay; also: nearly all actives have a fitted effect of over 40% in size
Details: DPX-2 HepG2 PXR, CYP3A4-luciferin luminescence, 24 h; series mostly up to 46.1 µM; activation: at the top concentration
Description: National Center for Advancing Translational Sciences [NCATS]
NIH Chemical Genomics Center [NCGC]
U.S. Environmental Protection Agency [EPA]
National Institutes of Environmental Health Sciences [NIEHS]
National Toxicology Program [NTP]
The Pregnane X receptor (PXR), a ligand activated nuclear receptor plays a critical role in the regulation of genes involved in drug metabolism and transporters. Activation of PXR is responsible for unwanted adverse drug reactions. PXR binds xenobiotics and when compounds interact with PXR enhances the expression of CYP3A genes. Identifying the compounds with the potential for PXR activation and CYP3A4 induction can be of importance in improving the efficacy of drugs with less toxicity and avoiding drug-drug interactions.
DPX-2 (Puracyp, Inc.) cell lines, used for screening against human PXR activation has HepG2 cells co-transfected with a PXR response element and a luciferase construct containing CYP3A4 promoter. […]
DPX-2 cells were dispensed at 2,000 cells per well in 5uL of assay medium into white, solid-bottom 1536-well plates using a Multidrop Combi dispenser (Thermo Scientific). […] Then 5ul One-Glo assay reagent (Promega) was added to each plate by an FRD and following 30 min incubation at room temperature, luciferase activity was quantified on a ViewLux plate reader (Perkin Elmer).
% is scaled to controls: 0 for no effect and ±100 for the full control effect; potency is read from the fitted curve at half-maximal effect.

Row | Structure (SMILES) | activation | Potency
1 | CN(CCCl)CCCl | inactive: -4.2% | –
2 | CCC(=O)N(c1ccccc1)C1CCN(CCc2ccccc2)CC1 | – | active: 14.1 µM
